Results taken from published antibiotic growth screens (doi:10.1038/s41589-023-01349-8).
This is one part of the list.

Each molecule was assayed on A. baumannii ATCC 17978 (assay: relative growth (fraction of control); higher = less inhibition). Conditions: 50 µM.
For N=C(N)NOCC[C@H](N)C(=O)O, the relative growth was 0.864.
O=C(O)[C@H]1[C@H](C(=O)O)[C@H]2CC[C@@H]1O2 was tested, and the relative growth was 1.04.
With c1ccc2c(c1)[nH]c1cnccc12 the relative growth was 0.791.
With COc1ccc(OC)c(C(O)C(C)N)c1.Cl (stereo unspecified) the relative growth was 1.29.
Work on CNC(C)(C)Cc1ccccc1.O=S(=O)(O)O yielded a relative growth of 0.929.
For C[C@@]12C(=O)OC(=O)[C@]1(C)[C@H]1CC[C@@H]2O1, the relative growth was 1.1.
With Br.CN1C2CC(O)[C@H]1C[C@@H](OC(=O)[C@H](CO)c1ccccc1)C2 (mixture of isomers) the relative growth was 0.994.
Work on NCCc1ccc([N+](=O)[O-])cc1 yielded a relative growth of 0.986.
Work on NCCCNCCSP(=O)(O)O yielded a relative growth of 1.13.
O=[N+]([O-])c1ccc(O)c([N+](=O)[O-])c1 was tested, and the relative growth was 0.704.
Work on COc1cc(C(=O)O)cc(OC)c1OC yielded a relative growth of 0.863.
For C=CC[C@]1(O)CCC2[C@@H]3CCC4=CCCC[C@@H]4C3CC[C@@]21C (stereo partly specified), the relative growth was 1.37.
Nc1ccc(-c2ccc(N)cc2)cc1 showed a relative growth of 0.951.
Cc1cc(OC(=O)N(C)C)cc(=O)n1C was tested, and the relative growth was 1.03.
In the case of CC(C)c1ccc2c(c1O)CC[C@H]1C3=C(CC[C@]21C)C(=O)OC3, the relative growth is reported as 0.834.
In the case of Nc1ccc([As](=O)(O)O)cc1, the relative growth is reported as 1.02.
CC(C)c1cc2c(c(O)c1O)[C@@]1(C(=O)O)CCCC(C)(C)C1CC2 (stereo partly specified) gave a relative growth of 0.997.
In the case of COP(=S)(OC)Oc1cc(Cl)c(Cl)cc1Cl, the relative growth is reported as 0.155.
Work on COc1cc2occc2c2oc(=O)ccc12 yielded a relative growth of 1.47.
Work on CCCCCCCCC(=O)NCc1ccc(O)c(OC)c1 yielded a relative growth of 0.825.
In the case of COc1c2c(cc3c1OCO3)CC[N+](C)=C2.[Cl-], the relative growth is reported as 1.11.
With CN1C(=O)C(O)N=C(c2ccccc2)c2cc(Cl)ccc21 (stereo unspecified) the relative growth was 1.34.
Work on CCOc1ccc(N2CCNCC2)nn1 yielded a relative growth of 0.991.
O=C1CNC[C@@H]2c3cccc(F)c3CCN12 was tested, and the relative growth was 0.96.
CN1C2CCC1CC(OC(=O)C(CO)c1ccccc1)C2 (stereo unspecified) gave a relative growth of 1.23.
With O=C(O)C[C@@H]1CC[C@H]2NC[C@@H](O)COC[C@@H]2O1 the relative growth was 0.943.
COc1cccc2c1cc([N+](=O)[O-])c1c(C(=O)O)cc3c(c12)OCO3 was tested, and the relative growth was 1.04.
In the case of N=C(N)/N=C(\N)Nc1ccc(Cl)cc1, the relative growth is reported as 0.793.
Work on Cc1cc2c(C(C)C)c(O)c(O)c(C=O)c2c(O)c1-c1c(C)cc2c(C(C)C)c(O)c(O)c(C=O)c2c1O yielded a relative growth of 1.09.
Molecule CC(=O)Nc1cc([As](=O)(O)O)ccc1O has a relative growth of 1.07.
O=[N+]([O-])O[C@@H]1CO[C@H]2[C@@H]1OC[C@@H]2O was tested, and the relative growth was 0.998.
NC[C@H]1CCCc2ccc(Cl)cc21 gave a relative growth of 0.784.
For O=c1[nH]c2ccccc2n1C1CCN(CCCC(c2ccc(F)cc2)c2ccc(F)cc2)CC1, the relative growth was 0.299.
Cl.Cn1c(CCCC(=O)O)nc2cc(N(CCCl)CCCl)ccc21 was tested, and the relative growth was 0.977.
In the case of O=C1NC(=S)NC(=O)C1CN1CCOCC1, the relative growth is reported as 1.01.
[N-]=[N+]=NCc1ccccc1C[C@@]1(C(=O)NCCN2CCOCC2)N=C(c2ccc(OCCCO)cc2)O[C@@H]1c1ccccc1N=[N+]=[N-] gave a relative growth of 0.858.
In the case of COc1cc2c(cc1OC)[C@@]13CCN4CC5=CCOC6CC(=O)N2C1[C@H]6[C@H]5C[C@H]43 (stereo partly specified), the relative growth is reported as 0.957.
O=[N+]([O-])NC1=NCCN1Cc1ccc(Cl)nc1 showed a relative growth of 1.02.
With CC[C@@]1(C2O[C@@H](C3O[C@@](O)(CO)[C@H](C)C[C@@H]3C)C[C@@H]2C)CC[C@H]([C@]2(C)CCC3(C[C@H](O)[C@@H](C)[C@@H]([C@H](C)[C@@H](OC)[C@H](C)C(=O)[O-])O3)O2)O1.[Na+] (stereo partly specified) the relative growth was 1.02.
c1ccc(N2CCNCC2)nc1 gave a relative growth of 0.989.
With CCC(=O)O[C@H]1CCC2C3CCC4=CC(=O)CC[C@]4(C)C3CC[C@@]21C (stereo partly specified) the relative growth was 1.2.
In the case of CC[C@@H](C)C(=O)O[C@@H]1C[C@@]2(C)[C@H](c3ccoc3)OC(=O)C[C@]23O[C@@]2(C)O[C@]34[C@H](OC(=O)C(C)C)[C@@]3(O)[C@@H](OC(=O)[C@@]5(C)O[C@@H]5C)[C@@]5(C)C[C@]3(O)[C@@](C)([C@H]5CC(=O)OC)[C@@]14O2, the relative growth is reported as 1.08.
In the case of CNC(=O)Oc1ccc2c(c1)[C@]1(C)CCN(C)[C@@H]1N2C, the relative growth is reported as 1.06.
For NCCc1nc2ccccc2[nH]1, the relative growth was 0.911.
Work on O.O.O.O=C([O-])C1[O][Sb]2[O]C(=O)C([O]2)C(C(=O)[O-])[O][Sb]2[O]C(=O)C1[O]2.[K+].[K+] (stereo unspecified) yielded a relative growth of 0.948.
Cc1ccc(C[C@H]2CCCN2)cc1C showed a relative growth of 0.923.
For CN(C)C(=O)Oc1ccc[n+](C)c1.[Br-], the relative growth was 1.09.
Molecule CC1(C)C(=O)C=C[C@@]2(C)C1C[C@@H](O)[C@]1(C)C2CC[C@@]2(C)[C@H](c3ccoc3)OC(=O)[C@H]3O[C@]321 (stereo partly specified) has a relative growth of 1.02.
Work on CC1(C)C2CC(=O)[C@]3(C)C(CC[C@@]4(C)[C@H](c5ccoc5)OC(=O)[C@H]5O[C@]543)[C@@]2(C)C(=O)C[C@H]1O (stereo partly specified) yielded a relative growth of 0.933.
Molecule COc1ccc(C(=O)O)cc1OC has a relative growth of 1.03.
CN(C)C(=O)Oc1cccc([N+](C)(C)C)c1.COS(=O)(=O)[O-] showed a relative growth of 0.856.
